This assay concerns the target biotinylated monoFc-ACE2 receptor (human ACE2 residues 19-615 with N-terminal monoFc) (human, UniProt Q9BYF1 19-615).

B1: bare cellulose binding domain (CBD) (other, Hungateiclostridium thermocellum, UniProt Q06851 364-522, looked up)
chain: PVSGNLKVEFYNSNPSDTTNSINPQFKVTNTGSSAIDLSKLTLRYYYTVDGQKDQTFWCDHAAIIGSNGSYNGITSNVKGTFVKMSSSTNNADTYLEISFTGGTLEPGAHVQIQGRFAKNDWSNYTQSNDYSFKSASQFVEWDQVTAYLNGVLVWGKEP
Turning to B1, the binding result is recorded as “no binding”.

The record behind these values is patent publication US20230375531A1 (MIT, published 2023).
